Measurements: patent publication US20240166626A1, “Compounds and Methods for Preventing, Treating, or Ameliorating Airway Disease” (THOMAS JEFFERSON UNIVERSITY, priority 2021, published 2024)
pIC50: −log10 of the molar value. Like-named read-outs stand apart in the source and are kept apart here.

How the values were obtained:
β2AR [1] = biological target: T1, β2AR (Homo sapiens, UniProt P07550); assay: PATHHUNTER high throughput assay for β-arrestin recruitment to β2AR
β2AR [2] = biological target: T1, β2AR; assay: GLOSENSOR cAMP production assay (bias = GloSensor IC50:PathHunter IC50); details: GloSensor IC50:PathHunter IC50 ratio
[3] = read-out: IC50 Arrestin, Table 3, ISO-promoted β-arrestin2 recruitment, scaffold drawing 254, R1/R3 substituents
[4] = read-out: IC50 Arrestin, Table 2, ISO-promoted β-arrestin2 recruitment, scaffold drawing 253, R1/R2 substituents

| SMILES | pIC50 (β2AR [1]; [3]) | Arrestin fold bias (β2AR [2]; Table 3) | pIC50 (β2AR [1]; [4]) | Arrestin fold bias (β2AR [2]; Table 2) |
| --- | --- | --- | --- | --- |
| Nc1nc(Nc2cc(Cl)cc(Cl)c2)nc2ccccc12 | 5.00 | No | – | – |
| Cc1ccc2c(NC3CCCCC3)nc(Nc3cc(Cl)cc(Cl)c3)nc2c1 | – | – | 5.00 | >10 |
| CN(C)CCCNc1nc(Nc2cc(Cl)cc(Cl)c2)nc2ccccc12 | 4.59 | >3 | – | – |
| CCNc1nc(Nc2cc(Cl)cc(Cl)c2)nc2ccccc12 | 4.89 | No | – | – |
| OCCc1ccc(Nc2nc(Nc3cc(Cl)cc(Cl)c3)nc3ccccc23)cc1 | 4.74 | No | – | – |
| NCCCNc1nc(Nc2cc(Cl)cc(Cl)c2)nc2ccccc12 | 4.60 | No | – | – |
| Cc1cccc2c(NC3CCCCC3)nc(Nc3cc(Cl)cc(Cl)c3)nc12 | – | – | < 4.00 | No |
| Clc1cc(Cl)cc(Nc2nc(NC3CCCCCC3)c3ccccc3n2)c1 | 5.30 | >20 | – | – |
| Clc1cc(Cl)cc(Nc2nc(NC3CCCCC3)c3cc(Cl)ccc3n2)c1 | – | – | 5.10 | >20 |
| Clc1cc(Cl)cc(Nc2nc(NCCc3ccccc3)c3ccccc3n2)c1 | 5.15 | ~3 | – | – |
| Cc1ccc2nc(Nc3cc(Cl)cc(Cl)c3)nc(NC3CCCCC3)c2c1 | – | – | 5.52 | >20 |
| CCCCCNc1nc(Nc2cc(Cl)cc(Cl)c2)nc2ccccc12 | 4.64 | ~3 | – | – |
